Experimental data taken from patent US10039761B2, “Co-crystals and pharmaceutical compositions comprising the same” (Vertex Pharmaceuticals Incorporated, priority 2013, dated 2018).

Tested on: DU4475 breast cancer line
Assay: Doxorubicin or epirubicin combination in DU4475 cells
Type: cell-based
Conditions: drug in combination with Compound (2)
Procedure: The cell-based experiments and assays were performed with either molecule but not always with both. Compounds (1) and (2) were generally very similar in those assays and experiments. Analysis of the combination experiments was performed using two methods: the Bliss Additivity model and the Mixtures Blend method to determine the degree of synergy, additivity, or antagonism. In the Bliss method, a matrix of Bliss scores was generated for each cell line and treatment, and a sum of the Bliss values over the range of combination concentrations tested was calculated. […] Larger average Bliss values indicate greater confidence in reporting synergy, and smaller scores indicate greater confidence in reporting antagonism. In the Mixtures Blend method combinants were added in a range of optimal ratios using design of experiment (DOE) software (DX-8 from STAT-EASE); the cells were irradiated with 2 Gy as required. Synergy was determined using statistical analysis of the data (ANOVA) to indicate linear (additivity) or statistically significant (p<0.1) non-linear (antagonism or synergy) mixes of the combinants.
Combinations of Compound (2) and doxorubicin or epirubicin (DNA intercalator) were tested against breast cancer cell lines (Tables 17 and 18), with a comparison between wild-type and mutant lines being a focus of the study. […]

COc1cccc2c1C(=O)c1c(O)c3c(c(O)c1C2=O)C[C@@](O)(C(=O)CO)C[C@@H]3O[C@H]1C[C@H](N)[C@@H](O)[C@H](C)O1 [Epirubicin]
Average Bliss score: 33.3
